The values below come from patent publication US20090305993A1, “METHODS AND COMPOSITION FOR THE TREATMENT OF GASTROINTESTINAL DISORDERS” (IRONWOOD PHARMACEUTICALS, INC., priority 2006, published 2009).

The target in the series is T1, carboxypeptidase A (Homo sapiens, UniProt P15085).
T1 sequence (P15085 111-419): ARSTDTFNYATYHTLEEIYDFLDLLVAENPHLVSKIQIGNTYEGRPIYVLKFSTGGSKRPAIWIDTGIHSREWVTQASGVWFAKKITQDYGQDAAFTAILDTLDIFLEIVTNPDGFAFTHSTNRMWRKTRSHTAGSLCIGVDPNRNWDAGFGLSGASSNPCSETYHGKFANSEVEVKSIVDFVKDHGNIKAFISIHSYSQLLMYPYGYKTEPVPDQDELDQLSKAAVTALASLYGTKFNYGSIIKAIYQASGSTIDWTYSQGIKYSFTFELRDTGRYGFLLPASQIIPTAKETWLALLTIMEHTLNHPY
Put plainly: in vitro proteolytic stability, carboxypeptidase A.

In the case of “N-CBZ-Glycine-Glycine-Leucine [Z-Gly-Gly-Leu, reference compound]”, under “37° C., FIG. 13a, 13b”, the “proteolysis by carboxypeptidase A” value was “proteolyzed”. Further, the “average calculated concentration of parent” value (T0 control and T0 samples) is recorded as 7.1 (+/−0.30) μg/mL. In addition, under “T3 h and T24 h samples”, the “calculated concentrations of the products” value is recorded as 2.2 (+/−0.010) μg/mL and the “parent (precursor mass)” value was “No precursor mass was detected”.
